Biological target: IDE (Homo sapiens, UniProt P14735)
Assay: In vitro IDE enzymatic assay (hydrolysis of FRET1, SP1, FAβB, 125I-insulin or insulin by HTRF)
Type: biochemical
Set-up: made in house; host or cells: bacteria
Conditions: pure diastereomers based on Phe-Arg-Trp-Glu

Amino acid sequences for entries named in this document (tags omitted).
UniProt P14735, whole entry: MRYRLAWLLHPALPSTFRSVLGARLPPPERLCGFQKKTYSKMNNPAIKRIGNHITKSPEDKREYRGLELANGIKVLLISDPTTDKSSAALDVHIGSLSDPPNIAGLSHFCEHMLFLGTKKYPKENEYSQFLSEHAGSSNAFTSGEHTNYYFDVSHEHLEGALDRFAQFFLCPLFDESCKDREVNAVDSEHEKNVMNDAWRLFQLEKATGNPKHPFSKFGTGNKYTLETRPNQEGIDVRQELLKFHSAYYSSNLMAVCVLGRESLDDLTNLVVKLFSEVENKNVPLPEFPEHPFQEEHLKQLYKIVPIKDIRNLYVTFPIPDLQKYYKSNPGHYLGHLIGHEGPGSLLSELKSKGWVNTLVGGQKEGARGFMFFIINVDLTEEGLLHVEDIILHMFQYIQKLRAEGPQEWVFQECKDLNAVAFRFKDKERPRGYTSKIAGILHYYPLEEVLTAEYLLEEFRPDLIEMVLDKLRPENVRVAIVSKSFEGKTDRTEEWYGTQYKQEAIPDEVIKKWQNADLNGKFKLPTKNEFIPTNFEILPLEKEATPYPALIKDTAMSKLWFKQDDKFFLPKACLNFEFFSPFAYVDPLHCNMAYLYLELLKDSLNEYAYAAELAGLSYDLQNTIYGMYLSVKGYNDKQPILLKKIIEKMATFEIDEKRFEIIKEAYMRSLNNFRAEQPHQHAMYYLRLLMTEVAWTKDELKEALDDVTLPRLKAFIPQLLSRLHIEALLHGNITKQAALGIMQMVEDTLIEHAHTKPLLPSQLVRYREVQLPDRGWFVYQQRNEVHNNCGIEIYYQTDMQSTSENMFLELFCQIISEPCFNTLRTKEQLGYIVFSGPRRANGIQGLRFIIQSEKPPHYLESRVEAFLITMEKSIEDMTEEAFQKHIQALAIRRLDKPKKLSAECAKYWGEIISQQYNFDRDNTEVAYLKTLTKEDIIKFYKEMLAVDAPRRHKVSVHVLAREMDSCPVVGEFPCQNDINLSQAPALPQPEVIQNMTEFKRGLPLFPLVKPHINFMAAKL

Ki [nM] | SMILES
110 | N=C(N)NCCC[C@H](NC(=O)[C@@H](CC(=O)NO)Cc1ccccc1)C(=O)N[C@@H](Cc1c[nH]c2ccccc12)C(=O)N[C@@H](CCC(=O)O)C(N)=O
4100 | N=C(N)NCCC[C@H](NC(=O)[C@H](CC(=O)NO)Cc1ccccc1)C(=O)N[C@@H](Cc1c[nH]c2ccccc12)C(=O)N[C@@H](CCC(=O)O)C(N)=O
